The values below come from ChEMBL document CHEMBL1124219, “Inhibition of porcine pepsin by two substrate analogues containing statine. The effect of histidine at the P2 subsite on the inhibition of aspartic proteinases” (J Med Chem, 1988).

Sequences of proteins named here, by UniProt entry; tags and fusion partners are left off. A change or cut given only in a name is not applied to a line headed by its entry.
UniProt P00797: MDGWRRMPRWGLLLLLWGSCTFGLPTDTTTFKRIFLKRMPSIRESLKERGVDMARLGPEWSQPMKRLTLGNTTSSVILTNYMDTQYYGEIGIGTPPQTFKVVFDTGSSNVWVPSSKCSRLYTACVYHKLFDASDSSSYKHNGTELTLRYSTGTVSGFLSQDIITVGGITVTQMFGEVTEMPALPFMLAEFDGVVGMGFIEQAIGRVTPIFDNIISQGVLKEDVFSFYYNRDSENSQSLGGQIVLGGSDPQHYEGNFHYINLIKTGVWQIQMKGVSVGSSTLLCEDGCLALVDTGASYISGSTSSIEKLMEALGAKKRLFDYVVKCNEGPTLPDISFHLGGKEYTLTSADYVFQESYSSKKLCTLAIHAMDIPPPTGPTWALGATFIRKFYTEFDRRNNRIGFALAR

For the assay, the target named is Renin (Homo sapiens, UniProt P00797). Nature of the assay: Inhibition of human renin at pH 6.0.

With `COC(=O)C[C@H](O)[C@H](CC(C)C)NC(=O)[C@H](C)NC(=O)C[C@H](O)[C@H](CC(C)C)NC(=O)[C@H](Cc1c[nH]c2ccccc12)NC(=O)[C@H](Cc1c[nH]c2ccccc12)NC(=O)OC(C)(C)C`, the IC50 was 17 nM.

By IC50 is commonly meant the point on the concentration scale where inhibition reaches its midpoint. A low value points to higher potency.
